# Data reported in patent US9765070B2, “Substituted oxopyridine derivatives” (Bayer Pharma Aktiengesellschaft, priority 2013, dated 2017).
# Protein sequences, listed by entry. Tags and fused reporters are not part of them. Residues count along the entry.
# UniProt P03951, 19-387 partner: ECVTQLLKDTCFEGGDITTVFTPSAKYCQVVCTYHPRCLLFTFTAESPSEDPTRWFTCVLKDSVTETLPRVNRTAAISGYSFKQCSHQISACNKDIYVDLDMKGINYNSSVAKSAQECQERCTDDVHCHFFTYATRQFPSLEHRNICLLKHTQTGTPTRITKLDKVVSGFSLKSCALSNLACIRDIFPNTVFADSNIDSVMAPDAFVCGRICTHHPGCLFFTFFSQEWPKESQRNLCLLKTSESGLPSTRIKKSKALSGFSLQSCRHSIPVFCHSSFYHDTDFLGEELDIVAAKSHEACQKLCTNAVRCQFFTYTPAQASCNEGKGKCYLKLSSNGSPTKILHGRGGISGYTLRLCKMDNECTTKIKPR
# UniProt P03951, 388-625: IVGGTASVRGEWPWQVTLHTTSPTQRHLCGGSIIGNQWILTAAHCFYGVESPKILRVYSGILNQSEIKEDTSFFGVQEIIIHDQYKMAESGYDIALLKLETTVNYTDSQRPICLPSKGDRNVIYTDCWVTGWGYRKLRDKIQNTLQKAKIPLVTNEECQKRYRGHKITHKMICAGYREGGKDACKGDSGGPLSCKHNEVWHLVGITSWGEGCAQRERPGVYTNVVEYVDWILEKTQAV
# UniProt P03952, 20-390 partner: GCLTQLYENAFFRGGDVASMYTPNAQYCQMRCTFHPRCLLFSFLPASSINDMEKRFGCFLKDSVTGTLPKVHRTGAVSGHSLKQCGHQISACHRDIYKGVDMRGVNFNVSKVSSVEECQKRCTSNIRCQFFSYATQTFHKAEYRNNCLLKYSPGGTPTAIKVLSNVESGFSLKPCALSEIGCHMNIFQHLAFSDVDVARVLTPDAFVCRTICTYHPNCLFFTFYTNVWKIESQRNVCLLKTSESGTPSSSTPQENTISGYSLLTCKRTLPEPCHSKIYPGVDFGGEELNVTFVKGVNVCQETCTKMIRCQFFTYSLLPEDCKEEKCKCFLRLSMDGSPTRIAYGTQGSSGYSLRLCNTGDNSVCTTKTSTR
# UniProt P03952, 391-638: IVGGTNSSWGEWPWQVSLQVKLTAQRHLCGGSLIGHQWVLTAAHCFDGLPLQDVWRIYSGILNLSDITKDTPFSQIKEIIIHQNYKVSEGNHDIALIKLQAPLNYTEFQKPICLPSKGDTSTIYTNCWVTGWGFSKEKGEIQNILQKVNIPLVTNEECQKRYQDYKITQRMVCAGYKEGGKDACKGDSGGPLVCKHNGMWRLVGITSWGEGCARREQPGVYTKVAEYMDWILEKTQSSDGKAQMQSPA
# Legend:
# human factor XIa = human factor XIa (Homo sapiens (Human), UniProt P03951); assay: Measurement of FXIa inhibition (fluorogenic peptide substrate Boc-Glu(OBzl)-Ala-Arg-AMC); type: biochemical; conditions: factor XIa from Kordia 0.45 nM, 15 min preincubation, 30 min at 22° C., fluorescence
# Description: a.1) Measurement of FXIa Inhibition
# (§1) The factor XIa inhibition of the substances according to the invention is determined using a biochemical test system which utilizes the reaction of a peptidic factor XIa substrate to determine the enzymatic activity of human factor XIa. Here, factor XIa cleaves from the peptic factor XIa substrate the C-terminal aminomethylcoumarin (AMC), the fluorescence of which is measured. The determinations are carried out in microtitre plates.
# In each case 1 μl of the diluted substance solutions is placed into the wells of white microtitre plates from Greiner (384 wells). 20 μl of assay buffer (50 mM of Tris/HCl pH 7.4; 100 mM of sodium chloride; 5 mM of calcium chloride; 0.1% of bovine serum albumin) and 20 μl of factor XIa from Kordia (0.45 nM in assay buffer) are then added successively. After 15 min of incubation, the enzyme reaction is started by addition of 20 μl of the factor XIa substrate Boc-Glu(OBzl)-Ala-Arg-AMC dissolved in assay buffer (10 μM in assay buffer) from Bachem, the mixture is incubated at room temperature (22° C.) for 30 min and fluorescence is then measured (excitation: 360 nm, emission: 460 nm). The measured emissions of the test batches with test substance are compared to those of control batches without test substance (only dimethyl sulphoxide instead of test substance in dimethyl sulphoxide), and IC50 values are calculated from the concentration/activity relationships.
# human plasma kallikrein = human plasma kallikrein (Homo sapiens (Human), UniProt P03952); assay: Determination of the plasma kallikrein activity (fluorogenic substrate H-Pro-Phe-Arg-AMC); type: biochemical; conditions: plasma kallikrein from Kordia 0.6 nM, 15 min preincubation, 30 min at 22° C., fluorescence
# Description: a.5) Determination of the Plasma Kallikrein Activity
# as §1, with “To determine the plasma kallikrein” for “The factor XIa”, “invention,” for “invention is determined using”, “system is used” for “system”, “plasma kallikrein” for “factor XIa”, “plasma kallikrein.” for “factor XIa.”
# Test substances are dissolved in dimethyl sulphoxide and serially diluted in dimethyl sulphoxide (3000 μM to 0.0078 μM; resulting final concentrations in the test: 50 μM to 0.00013 μM). In each case 1 μl of the diluted substance solutions is placed into the wells of white microtitre plates from Greiner (384 wells). 20 μl of assay buffer (50 mM Tris/HCl pH 7.4; 100 mM sodium chloride solution; 5 mM of calcium chloride solution; 0.1% of bovine serum albumin) and 20 μl of plasma kallikrein from Kordia (0.6 nM in assay buffer) are then added successively. After 15 min of incubation, the enzyme reaction is started by addition of 20 μl of the substrate H-Pro-Phe-Arg-AMC dissolved in assay buffer (10 μM in assay buffer) from Bachem, the mixture is incubated at room temperature (22° C.) for 30 min and fluorescence is then measured (excitation: 360 nm, emission: 460 nm). The measured emissions of the test batches with test substance are compared to those of control batches without test substance (only dimethyl sulphoxide instead of test substance in dimethyl sulphoxide), and IC50 values are calculated from the concentration/activity relationships.
SMILES,IC50 (human factor XIa) [µM],IC50 (human plasma kallikrein) [µM]
"COc1cn(C(C[C@@H]2CCCCO2)C(=O)Nc2ccc3nc(C(=O)O)cn3c2)c(=O)cc1-c1cc(Cl)ccc1C#N (mixture of isomers) [Example 9, 6-({2-[4-(5-Chloro-2-cyanophenyl)-5-methoxy-2-oxopyridin-1(2H)-yl]-3-[(2S)-tetrahydro-2H-pyran-2-yl]propanoyl}amino)imidazo[1,2-a]pyridine-2-carboxylic acid (mixture of enantiomerically pure diastereomers)]",0.0005,–
"CCC(C(=O)Nc1cn2cc(C(=O)O)ccc2n1)n1cc(OC)c(-c2cc(Cl)ccc2C#N)cc1=O (racemic) [Example 1, 2-({2-[4-(5-Chloro-2-cyanophenyl)-5-methoxy-2-oxopyridin-1(2H)-yl]butanoyl}amino)imidazo[1,2-a]pyridine-6-carboxylic acid (racemate)]",–,0.14
"CCC(C(=O)Nc1ccc2nccn2c1)n1cc(OC)c(-c2cc(Cl)ccc2C#N)cc1=O (racemic) [Example 4, 2-[4-(5-Chloro-2-cyanophenyl)-5-methoxy-2-oxopyridin-1(2H)-yl]-N-(imidazo[1,2-a]pyridin-6-yl)butanamide (racemate)]",0.065,–
"COc1cn(C(CC2CCC2)C(=O)Nc2ccc3nc(C(=O)O)cn3c2)c(=O)cc1-c1cc(Cl)ccc1C#N (racemic) [Example 5, 6-({2-[4-(5-Chloro-2-cyanophenyl)-5-methoxy-2-oxopyridin-1(2H)-yl]-3-cyclobutylpropanoyl}-amino)imidazo[1,2-a]pyridine-2-carboxylic acid (racemate)]",0.001,0.0071
"CCC(C(=O)Nc1ccc2nc(C(=O)O)cn2c1)n1cc(OC)c(-c2cc(Cl)ccc2OC(F)F)cc1=O (racemic) [Example 7, 6-[(2-{4-[5-Chloro-2-(difluoromethoxy)phenyl]-5-methoxy-2-oxopyridin-1(2H)-yl}butanoyl)amino]-imidazo[1,2-a]pyridine-2-carboxylic acid (racemate)]",–,0.15
"CCOC(=O)c1cnc2ccc(NC(=O)C(CCOC)n3cc(OC)c(-c4cc(Cl)ccc4C#N)cc3=O)cn12 (racemic) [Example 10, Ethyl 6-({2-[4-(5-chloro-2-cyanophenyl)-5-methoxy-2-oxopyridin-1(2H)-yl]-4-methoxybutanoyl}amino)imidazo[1,2-a]pyridine-3-carboxylate (racemate)]",0.036,–
"COc1cn(C(C[C@H]2CC[C@H](O)CC2)C(=O)Nc2ccc3nccn3c2)c(=O)cc1-c1cc(Cl)ccc1C#N (mixture of isomers) [Example 16, 2-[4-(5-Chloro-2-cyanophenyl)-5-methoxy-2-oxopyridin-1(2H)-yl]-3-(trans-4-hydroxycyclohexyl)-N-(imidazo[1,2-a]pyridin-6-yl)propanamide (racemate)]",–,0.017

# Now from value to molecule:
IC50 (human factor XIa) [µM],IC50 (human plasma kallikrein) [µM],SMILES
–,0.008,"COCCC(C(=O)Nc1ccc2nncn2c1)n1cc(OC)c(-c2cc(Cl)ccc2C#N)cc1=O (racemic) [Example 21, 2-[4-(5-Chloro-2-cyanophenyl)-5-methoxy-2-oxopyridin-1(2H)-yl]-4-methoxy-N-([1,2,4]triazolo[4,3-a]pyridin-6-yl)butanamide (racemate)]"
–,0.012,"COCCC(C(=O)Nc1ccc2nnc(CN3CCOCC3)n2c1)n1cc(OC)c(-c2cc(Cl)ccc2C#N)cc1=O (racemic) [Example 26, 2-[4-(5-Chloro-2-cyanophenyl)-5-methoxy-2-oxopyridin-1(2H)-yl]-4-methoxy-N-[3-(morpholin-4-ylmethyl)[1,2,4]triazolo[4,3-a]pyridin-6-yl]butanamide (racemate)]"
0.012,–,"COc1cn(C(Cc2ccccn2)C(=O)Nc2ccc3nccn3c2)c(=O)cc1-c1cc(Cl)ccc1C#N (racemic) [Example 28, 2-[4-(5-Chloro-2-cyanophenyl)-5-methoxy-2-oxopyridin-1(2H)-yl]-N-(imidazo[1,2-a]pyridin-6-yl)-3-(pyridin-2-yl)propanamide (racemate)]"
–,0.036,"COc1cn(C(Cc2cocn2)C(=O)Nc2ccc3nccn3c2)c(=O)cc1-c1cc(Cl)ccc1C#N (racemic) [Example 32, 2-[4-(5-Chloro-2-cyanophenyl)-5-methoxy-2-oxopyridin-1(2H)-yl]-N-(imidazo[1,2-a]pyridin-6-yl)-3-(1,3-oxazol-4-yl)propanamide (racemate)]"
0.021,–,"CCC(C(=O)Nc1ccn2nccc2c1)n1cc(OC)c(-c2cc(Cl)ccc2C#N)cc1=O (racemic) [Example 34, 2-[4-(5-Chloro-2-cyanophenyl)-5-methoxy-2-oxopyridin-1(2H)-yl]-N-(pyrazolo[1,5-a]pyridin-5-yl)butanamide (racemate)]"
0.029,0.065,"COCCC(C(=O)Nc1ccn2nccc2c1)n1cc(Cl)c(-c2cc(Cl)ccc2C#N)cc1=O (racemic) [Example 37, 2-[5-Chloro-4-(5-chloro-2-cyanophenyl)-2-oxopyridin-1(2H)-yl]-4-methoxy-N-(pyrazolo[1,5-a]pyridin-5-yl)butanamide (racemate)]"
0.18,1.8,"CCC(C(=O)Nc1ccn2nccc2c1)n1cc(C(=O)O)c(-c2cc(Cl)ccc2C#N)cc1=O (racemic) [Example 39, 4-(5-Chloro-2-cyanophenyl)-6-oxo-1-[1-oxo-1-(pyrazol[1,5-a]pyridin-5-ylamino)butan-2-yl]-1,6-dihydropyridine-3-carboxylic acid (racemate)]"
0.015,0.029,"COCCC(C(=O)Nc1ccn2nccc2c1)n1cc(Cl)c(-c2cc(Cl)ccc2C#N)cc1=O (single isomer, unassigned; enantiomer 1) [Example 38, 2-[5-Chloro-4-(5-chloro-2-cyanophenyl)-2-oxopyridin-1(2H)-yl]-4-methoxy-N-(pyrazolo[1,5-a]pyridin-5-yl)butanamide (enantiomer 1)]"
